# Reference: paper PMC9135303, “Interaction of fungal lipase with potential phytotherapeutics” (PLoS ONE, 2022)
# Protein sequences, listed by entry. Tags and fused reporters are not part of them. Residues count along the entry.
# UniProt P02768, 25-609: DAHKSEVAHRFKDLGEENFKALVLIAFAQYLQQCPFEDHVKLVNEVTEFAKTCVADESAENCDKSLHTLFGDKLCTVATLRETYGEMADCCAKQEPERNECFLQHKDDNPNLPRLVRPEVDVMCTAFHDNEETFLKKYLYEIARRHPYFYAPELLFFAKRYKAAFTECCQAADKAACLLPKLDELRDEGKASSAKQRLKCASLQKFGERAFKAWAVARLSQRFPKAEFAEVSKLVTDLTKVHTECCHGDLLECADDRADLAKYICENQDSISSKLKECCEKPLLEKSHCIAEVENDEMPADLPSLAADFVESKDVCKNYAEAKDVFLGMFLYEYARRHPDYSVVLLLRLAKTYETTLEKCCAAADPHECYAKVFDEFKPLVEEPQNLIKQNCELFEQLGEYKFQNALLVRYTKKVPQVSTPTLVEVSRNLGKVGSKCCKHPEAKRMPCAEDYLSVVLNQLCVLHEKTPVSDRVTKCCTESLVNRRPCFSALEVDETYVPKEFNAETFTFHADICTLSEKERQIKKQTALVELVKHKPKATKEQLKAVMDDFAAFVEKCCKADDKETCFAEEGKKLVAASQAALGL
# pKd: −log10 of the molar value.
# What was measured:
# HSA = HSA (Homo sapiens, UniProt P02768); assay: Intrinsic Trp214 fluorescence quenching of HSA (excitation 280 nm, ligand 50-400 uM, inner-filter corrected), 10 mM phosphate pH 7.4, 298 K; Ka from double-logarithmic plot.; assay type: binding; design: gene ALB; commercial (Sigma-Aldrich), dialyzed; details: read-out: Ka(M^-1) (converted)
# Procedure: (§1) Lipase and HSA were dialyzed against KCl- buffer (pH 7) for 24 hrs. Stock solution of lipase was prepared in 10 mM phosphate buffer at pH 7.4 to obtain a particular concentration. […] These samples were incubated at 298.0 K for about 24 hrs.
# (§2) Fluorescence spectra were recorded on Hitachi F-4010 spectrofluorometer equipped with circulating water bath to maintain the temperature of the cell. The quartz cell of path length 1.0 cm and band slit of 5.0 nm were used for all experiments. The excitation wavelength was 280 nm for lipase and HSA. Emission spectra were recorded from 300–450 nm for lipase and HSA protein.
# (§3) Herein, the fluorescence intensities were corrected for absorption of the exciting light and reabsorption of the emitted light to decrease the inner filter effect according to the following equation [10] (Chi & Liu, 2011): Fcorr=Fobs10^Aex+Aem/2, Where Fcorr and Fobs are corrected and experimentally measured fluorescence intensities, respectively. […] The fluorescence intensity utilized in this paper was the corrected intensity.
# The fluorescence emission spectra of HSA in the absence and the presence of increasing linalool concentrations (50–400 μM with 50 μM intervals) is shown as Fig 7A. […]
# The plot of F0/F against [linalool] at 298K is given as S3A Fig. The values of ksv and kq could be calculated from the slope of curves. […]
# [1] = biological target: T1, Human Serum Albumin (HSA) (Homo sapiens, UniProt P02768); assay: Far-UV circular dichroism of HSA; details: 24 hours at 298.15 K, pH 7.4, native -17.76
# T1 construct: purchased Sigma-Aldrich
# Procedure: CD spectra were obtained over wavelength range of 200–250 nm on Jasco-1500 CD Spectrometer equipped with peltier type temperature controller. 0.1cm quartz cell were used to measure far UV CD spectrum. The concentration of protein used was 0.2 mg/ml (lipase) and 0.35 mg/ml (HSA). Each spectrum was scanned thrice and finally average of 3 was used to analyse the results.
# [2] = biological target: T1, Human Serum Albumin (HSA); assay: Fluorescence quenching of HSA (Stern-Volmer and double-logarithmic plots); assay type: binding
# Procedure: as §1, §2, §3
# The HSA were excited at 280nm and spectra were taken from 300nm to […].
# The plot of F0/F against [linalool] at 298K is given as S3A Fig. The values of ksv and kq could be calculated from the slope of curves. The average lifetime of the fluorophore in the absence of the ligand as 6.38 × 10^−9 s for HSA [23]. […] Ka and ‘n’ were calculated from equation: Log[(F0–F)/F] = logKa + n log[linalool].
structure (smiles),measurement,setting,value
Cc1ccc(C(C)C)c(O)c1 [thymol],Kd,HSA,1.04 nM
same,MRE x 10^3 at 222nm (complex_400 μM),[1],-23.56
same,pKd,[2],~8.00
same,blue shift in the emission maximum of HSA,[2],2 nm
same,n (number of binding site),[2]; HSA,2.41
same,Ka (binding constant),"[2]; HSA, double-logarithmic plot",9.6e+08 M⁻¹
